{"sequences": {"note": "Amino acid sequences for entries named in this document (tags omitted). Residues count along the entry.", "UniProt Q03405, 23-305 limits assumed": "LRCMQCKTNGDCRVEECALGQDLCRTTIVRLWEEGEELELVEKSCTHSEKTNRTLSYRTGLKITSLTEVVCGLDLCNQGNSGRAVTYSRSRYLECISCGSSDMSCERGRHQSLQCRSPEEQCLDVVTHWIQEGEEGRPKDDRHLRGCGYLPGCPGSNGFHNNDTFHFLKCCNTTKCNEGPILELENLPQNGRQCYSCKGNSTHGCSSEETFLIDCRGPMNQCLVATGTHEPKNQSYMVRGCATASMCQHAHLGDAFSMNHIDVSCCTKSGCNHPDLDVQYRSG"}, "source": "patent US10633374B2", "about": "“Small molecule based antibody-recruiting compounds for cancer treatment” (YALE UNIVERSITY, priority 2015, dated 2020)", "key": {"[1]": {"target": "immobilized uPAR (Homo sapiens, UniProt Q03405)", "test": "Direct ELISA binding assay on immobilized uPAR", "conditions": "tested form: ammonium formate salt", "protocol": "Selected ARM-U2 derivatives were assayed for their ability to bind recombinant uPAR using a fluorescence quenching assay. The compounds stored at −20° C. as DMSO stocks were diluted into PBS aliquots at a fixed 50 nM concentration. Increasing concentrations of recombinant uPAR were mixed with each compound containing aliquot and the fluorescence of the solution measured following 1 h equilibration times. […] To confirm that the observation of uPAR dependent fluorescence quenching was indeed due to specific binding to uPAR and to validate ARM-U2 binding to uPAR specifically via the uPA binding site, a direct binding ELISA assay was developed. In this assay, clear 96-well high-binding plates from CoStar, were loaded with 100 μl/well of 50 nM recombinant uPAR 807-UK-100-CF from R&D systems prepared from a 100 μg/ml (approx. 2.1 μM) stock of uPAR in PBS and left overnight at room temperature to equilibrate. Following equilibration, the plate was washed with wash buffer 1× (400 μl/well of 0.05% Tween/PBS), blotted dry and blocked for 1 hr with 300 ul/well of 2% BSA/PBS. Following blocking, the plate was washed with 400 ul of the wash buffer and blotted dry. […] The absorbance at 450 nm was measured using an in-house Perkin-Elmer fluorescence plate reader."}, "[2]": {"test_system": "IL-8 release by U937 cells", "test": "Inflammatory cytokine release ELISA", "conditions": "A172 target cells plus anti-DNP antibodies, 50 nM or 1 μM, tested form: ammonium formate salt", "protocol": "Analysis of u937 secretion of 12 human inflammatory cytokines in the presence of anti-DNP antibodies and A172 target cells induced by ARM-U2 6-ABT-1 was carried out using the Multi-Analyte ELISArray Kit (MEH-004A, Qiagen). Sample preparation involved the immobilization of A172 target cells (approx. 1,000,000/3 ml T-flask) over the course of 24 hours at 37° C. followed by the addition of 1.5 ml phenol free RPMI assay media. 30 ul of 6-ABT-1 from 100×DMSO stocks or DMSO only was added (50 nM final 6-ABT-1 conc, 1% DMSO) followed by the addition of 30 ul anti-DNP antibody from 100× aqueous stocks (133 nM final concentration). 1.5 ml of IFN-gamma primed U937 cells suspended in phenol free RPMI assay media at a concentration of 2666.6 cells/ul, was then added and the plate incubated at 37° C. for 24 hr. Following incubation, the supernatant was collected, pelleted by centrifugation, and the supernatant collected and stored on ice. The ELISA plate pre-loaded with immobilized antibodies specific for each of the 12 cytokines tested was loaded with the cell supernatant collected, washed, and the bound cytokine detected all as described in the associated instruction manual available from Qiagen. The ELISA plate was read at an absorbance of 450 nm using a Perkin-Elmer Fluorescence plate reader with increases in absorbance at 450 nm proportional to bound cytokine. Results are show in FIG. 22."}}}
{"smiles": "O=C1c2ccccc2-c2onc3c(N4CCC[C@H](C(=O)NCCCOCCOCCOCCCNc5ccc([N+](=O)[O-])cc5[N+](=O)[O-])C4)cc(Nc4ccc(S(=O)(=O)O)cc4S(=O)(=O)O)c1c23", "values": [{"measurement": "binding to immobilized uPAR vs parent derivative", "setting": "[1]; direct ELISA", "value": "much higher affinity than parent derivative 1-ABT-1"}, {"measurement": "binding to immobilized uPAR after exogenous uPA-ATF", "setting": "[1]; plus 100 nM uPA-ATF", "value": "displacement of 6-ABT-1 from uPAR"}, {"measurement": "IL-8 release by U937 cells", "setting": "[2]", "value": "higher release of IL-8"}, {"measurement": "IL-8 release by U937 cells", "setting": "[2]; listed as ARM-U2", "value": "Higher levels of IL-8 secretion"}]}
